Measurements as given in ChEMBL document CHEMBL1126381, “2-carboxy indolines and indoles as potential glycine/NMDA antagonists: effect of five-membered ring conformation on affinity” (Bioorg Med Chem Lett, 1992).

Molecular target: Glutamate receptor ionotropic, NMDA 1 (Rattus norvegicus, UniProt P35439)
Experiment: Inhibition of [3H]L-689,560 binding to Glycine site of NMDA receptor of rat cortical membranes
Assay type: cell membranes, Membrane

IC50: 1.78 µM
Compound: COC(=O)Cc1c(C(=O)O)[nH]c2cc(Cl)ccc12
